Values quoted from earlier work in patent EP0523085B1, “PEROXY ACID BLEACH PRECURSORS AND DETERGENT COMPOSITIONS CONTAINING THEM” (priority 1990, dated 1991).

Conditions: room temperature (20°C); cited from earlier work

tetra acetyl ethylene diamine [TAED, reference compound]
solubility in water: approximately 0.2%
